# Measured values reported in PubChem BioAssay AID1645884 (National Center for Advancing Translational Sciences (NCATS), 2021).
# By UniProt entry, the sequences of proteins in these tests, tags left out.
# UniProt Q8WZA2, whole entry: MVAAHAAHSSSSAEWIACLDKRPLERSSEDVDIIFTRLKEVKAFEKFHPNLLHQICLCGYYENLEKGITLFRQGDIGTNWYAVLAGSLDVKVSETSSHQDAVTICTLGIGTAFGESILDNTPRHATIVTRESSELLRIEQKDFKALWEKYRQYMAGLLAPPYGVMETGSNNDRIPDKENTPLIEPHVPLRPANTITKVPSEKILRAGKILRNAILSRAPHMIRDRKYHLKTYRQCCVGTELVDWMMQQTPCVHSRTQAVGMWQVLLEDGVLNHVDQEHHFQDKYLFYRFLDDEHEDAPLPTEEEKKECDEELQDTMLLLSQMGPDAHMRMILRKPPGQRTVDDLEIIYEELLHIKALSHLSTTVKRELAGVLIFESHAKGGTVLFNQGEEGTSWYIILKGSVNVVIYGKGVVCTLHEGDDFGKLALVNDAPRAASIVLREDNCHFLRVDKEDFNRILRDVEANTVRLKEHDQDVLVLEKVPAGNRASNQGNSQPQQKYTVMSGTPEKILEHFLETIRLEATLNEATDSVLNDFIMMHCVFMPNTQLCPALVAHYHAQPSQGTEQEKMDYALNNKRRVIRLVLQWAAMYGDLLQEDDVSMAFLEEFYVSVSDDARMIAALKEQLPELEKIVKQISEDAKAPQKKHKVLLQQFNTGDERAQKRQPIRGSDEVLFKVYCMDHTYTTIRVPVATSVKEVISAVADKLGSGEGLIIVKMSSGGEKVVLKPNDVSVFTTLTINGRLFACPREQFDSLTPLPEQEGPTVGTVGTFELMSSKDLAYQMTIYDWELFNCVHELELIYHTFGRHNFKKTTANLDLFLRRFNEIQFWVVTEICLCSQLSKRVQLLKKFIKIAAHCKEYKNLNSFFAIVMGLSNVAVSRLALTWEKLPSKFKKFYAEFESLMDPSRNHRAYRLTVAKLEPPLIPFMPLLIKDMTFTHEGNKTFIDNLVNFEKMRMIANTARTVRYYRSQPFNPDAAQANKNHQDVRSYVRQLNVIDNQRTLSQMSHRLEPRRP
# Only a part is listed here, and it is no random draw. Results filed as inconclusive are left out. Calls of active or inactive are those of the source. The call rests on the fitted dose curve; in most records, active means well fitted activation curve with a large enough effect; inconclusive means small, poorly fitted or top-dose-only effect; inactive means no such curve, though single readings can be large or run the other way.
# Target: Rap guanine nucleotide exchange factor 4 (Homo sapiens) (UniProt Q8WZA2)
# Assay: Confirmatory qHTS for agonist of cAMP-regulated guanine nucleotide exchange factor 4 (EPAC2);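 further: nucleotide exchange releases bodipy-GDP from Rap1 and this lowers its fluorescence; nearly all actives have a fitted effect of over 65% in size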
# Details: EPAC2 GEF activity, Rap1B-BODIPY-GDP fluorescence, percent relative to cAMP agonist control; at 154 µM (top of the series)
# On the % scale 0 is the no-effect control and ±100 the full control effect.
row,SMILES,activation
1,CCCCn1nnnc1C(c1cc2ccccc2o1)N1CCC(n2c(=O)[nH]c3ccccc32)CC1 (stereo not drawn),inactive: 4.89%
2,CCC(c1nnnn1C(C)(C)C)N1CCC(n2c(=O)[nH]c3ccccc32)CC1 (stereo not drawn),inactive: -25.7%
3,O=c1[nH]c2ccccc2n1C1CCN(C(c2ccccc2OC(F)(F)F)c2nnnn2C2CCCC2)CC1 (stereo not drawn),inactive: -25.5%
